# PMC6321168, “Comparative Study on Excretive Characterization of Main Components in Herb Pair Notoginseng-Safflower and Single Herbs by LC–MS/MS” (Pharmaceutics, 2018)
# Key:
# [1] = Fecal excretion study in rats after oral NS, SF or CNS (LC–MS/MS); assay type: in vivo; details: for Accumulative excretion amount / Accumulative excretion percentage / Concentration / Excretion amount: rat feces
# Protocol: The animal room was set at constant temperature of 20 ± 2 °C with humidity of 50 ± 20% and 12/12 h light/dark cycle.
# Eighteen male rats were fasted for 12 h before starting the experiment. The rats were divided into three groups at random (n = 6) and received NS (60 mg/kg), SF (50 mg/kg), and NS (60 mg/kg) + SF (50 mg/kg), respectively, by oral gavage. The rats were placed in separate metabolic cages. The urine samples were collected at 0–2, 2–4, 4–6, 6–8, 8–12, 12–24, 24–36, 36–48, 48–72, 72–96, and 96–120 h. The feces samples were collected at 0–4, 4–8, 8–12, 12–24, 24–36, 36–48, 48–72, 72–96, and 96–120 h. The urine volume was recorded and the dry feces were measured for each collection period. Samples were stored at −80 °C until analysis.
# Feces samples were homogenized in ultrapure water (1 g/15 mL), soaked for 30 min, ultrasonically extracted for 30 min and centrifuged at 9000 rpm for 8 min. An aliquot of 200 μL feces water extraction solution was mixed with 10 μL of IS and then extracted three times with water-saturated n-BuOH (150 μL). The upper organic phase was combined and evaporated to dryness using a ZLS-2 vacuum centrifugal concentrator. The residue was treated as the urine sample and a 1-μL aliquot was injected for LC–MS analysis.
# Ultra fast liquid chromatography (UFLC) analysis was performed using a Shimadzu UFLC system (DGU-20A3R Degasser; LC-20AD pump; SIL-20AXR Autosampler; CTO-20AC Column Oven) (Nakagyo-Ku, Koyoto, Japan). […] Because of the different endogenous substances in the urine and feces samples, different elution gradients were used to alleviate the matrix effects for the analytes.
# The mass spectrometric detection was performed on an ABSciex 4500 Qtrap mass spectrometer (ABSciex, Foster City, CA, USA) equipped with a negative electrospray ionization (ESI) interface using multiple reaction monitoring (MRM). The MS parameters were optimized under the selected ion monitoring conditions as follows: curtain gas, 35 psi; ionspray voltage, 4500 V; turbo gas temperature, 450 °C; GS1, 45 psi; GS2, 45 psi. All data were acquired and analyzed by Analyst software (Versions 1.6.2) from ABSciex.
# The accumulative excretion percentage was calculated for each analyte as follows. Excretion at time (t) = [concentration of the analyte (ng/mL) at t] × total urine (or feces) volume (mL) at t. The cumulative excretion up to time t (mg) was expressed as a percent (%) cumulative excretion by dividing by the total amount of the analyte ingested (mg): % Cumulative Excretion = 100 × (Σt excretiont) total ingested.
# CYP2C11 = details: in rats; cited from earlier work
substance,measurement,setting,value
hydroxysafflor yellow A [HSYA],Accumulative excretion amount,"[1]; oral CNS 110 mg/kg, 4 h",21.012 ± 30.299 µg
same,Accumulative excretion percentage,"[1]; oral CNS 110 mg/kg, 4 h",2.084±3.005%
same,Concentration,"[1]; oral CNS 110 mg/kg, 4 h",1646 ± 2261 ng/mL
same,Excretion amount,"[1]; oral CNS 110 mg/kg, 4 h",21.013 ± 30.299 µg
same,Accumulative excretion amount,"[1]; oral CNS 110 mg/kg, 8 h",52.277 ± 28.669 µg
same,Accumulative excretion percentage,"[1]; oral CNS 110 mg/kg, 8 h",5.171±2.844%
same,Concentration,"[1]; oral CNS 110 mg/kg, 8 h",2095 ± 121 ng/mL
same,Excretion amount,"[1]; oral CNS 110 mg/kg, 8 h",31.265 ± 8.953 µg
same,Accumulative excretion amount,"[1]; oral CNS 110 mg/kg, 12 h",76.537 ± 34.048 µg
same,Accumulative excretion percentage,"[1]; oral CNS 110 mg/kg, 12 h",7.572±3.374%
same,Concentration,"[1]; oral CNS 110 mg/kg, 12 h",1660 ± 349 ng/mL
same,Excretion amount,"[1]; oral CNS 110 mg/kg, 12 h",24.260 ± 6.796 µg
same,Accumulative excretion amount,"[1]; oral CNS 110 mg/kg, 24 h",104.243 ± 34.486 µg
same,Accumulative excretion percentage,"[1]; oral CNS 110 mg/kg, 24 h",10.316±3.415%
same,Concentration,"[1]; oral CNS 110 mg/kg, 24 h",1829 ± 220 ng/mL
same,Excretion amount,"[1]; oral CNS 110 mg/kg, 24 h",27.706 ± 9.755 µg
same,Accumulative excretion amount,"[1]; oral CNS 110 mg/kg, 36 h",115.284 ± 36.570 µg
same,Accumulative excretion percentage,"[1]; oral CNS 110 mg/kg, 36 h",11.401±3.623%
same,Concentration,"[1]; oral CNS 110 mg/kg, 36 h",737 ± 37 ng/mL
same,Excretion amount,"[1]; oral CNS 110 mg/kg, 36 h",11.040 ± 3.298 µg
same,Accumulative excretion amount,"[1]; oral CNS 110 mg/kg, 48 h",125.551 ± 38.391 µg
same,Accumulative excretion percentage,"[1]; oral CNS 110 mg/kg, 48 h",12.422±3.804%
same,Concentration,"[1]; oral CNS 110 mg/kg, 48 h",688 ± 47 ng/mL
same,Excretion amount,"[1]; oral CNS 110 mg/kg, 48 h",10.267 ± 3.026 µg
same,Accumulative excretion amount,"[1]; oral CNS 110 mg/kg, 72 h",126.560 ± 38.340 µg
same,Accumulative excretion percentage,"[1]; oral CNS 110 mg/kg, 72 h",12.521±3.795%
same,Concentration,"[1]; oral CNS 110 mg/kg, 72 h",68 ± 28 ng/mL
same,Excretion amount,"[1]; oral CNS 110 mg/kg, 72 h",1.049 ± 0.586 µg
same,Accumulative excretion amount,"[1]; oral CNS 110 mg/kg, 96 h",126.874 ± 38.274 µg
same,Accumulative excretion percentage,"[1]; oral CNS 110 mg/kg, 96 h",12.556±3.795%
same,Concentration,"[1]; oral CNS 110 mg/kg, 96 h",17 ± 16 ng/mL
same,Excretion amount,"[1]; oral CNS 110 mg/kg, 96 h",0.274 ± 0.283 µg
same,Accumulative excretion amount,"[1]; oral CNS 110 mg/kg, 120 h",126.874 ± 38.274 µg
same,Accumulative excretion percentage,"[1]; oral CNS 110 mg/kg, 120 h",12.556±3.796%
same,Accumulative excretion amount,"[1]; oral SF 50 mg/kg, 4 h",43.994 ± 12.319 µg
same,Accumulative excretion percentage,"[1]; oral SF 50 mg/kg, 4 h",4.352±1.224%
same,Concentration,"[1]; oral SF 50 mg/kg, 4 h",2409 ± 352 ng/mL
same,Excretion amount,"[1]; oral SF 50 mg/kg, 4 h",43.994 ± 12.319 µg
same,Accumulative excretion amount,"[1]; oral SF 50 mg/kg, 8 h",80.066 ± 21.692 µg
same,Accumulative excretion percentage,"[1]; oral SF 50 mg/kg, 8 h",7.922±2.151%
same,Concentration,"[1]; oral SF 50 mg/kg, 8 h",1954 ± 115 ng/mL
same,Excretion amount,"[1]; oral SF 50 mg/kg, 8 h",36.072 ± 10.358 µg
same,Accumulative excretion amount,"[1]; oral SF 50 mg/kg, 12 h",119.118 ± 30.243 µg
same,Accumulative excretion percentage,"[1]; oral SF 50 mg/kg, 12 h",11.784±2.995%
same,Concentration,"[1]; oral SF 50 mg/kg, 12 h",2144 ± 142 ng/mL
same,Excretion amount,"[1]; oral SF 50 mg/kg, 12 h",39.052 ± 8.681 µg
same,Accumulative excretion amount,"[1]; oral SF 50 mg/kg, 24 h",133.750 ± 33.764 µg
same,Accumulative excretion percentage,"[1]; oral SF 50 mg/kg, 24 h",13.233±3.346%
same,Concentration,"[1]; oral SF 50 mg/kg, 24 h",791 ± 82 ng/mL
same,Excretion amount,"[1]; oral SF 50 mg/kg, 24 h",14.632 ± 4.256 µg
same,Accumulative excretion amount,"[1]; oral SF 50 mg/kg, 36 h",151.598 ± 37.989 µg
same,Accumulative excretion percentage,"[1]; oral SF 50 mg/kg, 36 h",15.001±3.762%
same,Concentration,"[1]; oral SF 50 mg/kg, 36 h",975 ± 39 ng/mL
same,Excretion amount,"[1]; oral SF 50 mg/kg, 36 h",17.848 ± 4.279 µg
same,Accumulative excretion amount,"[1]; oral SF 50 mg/kg, 48 h",152.707 ± 38.286 µg
same,Accumulative excretion percentage,"[1]; oral SF 50 mg/kg, 48 h",15.115±3.794%
same,Concentration,"[1]; oral SF 50 mg/kg, 48 h",60 ± 2 ng/mL
same,Excretion amount,"[1]; oral SF 50 mg/kg, 48 h",1.109 ± 0.297 µg
same,Accumulative excretion amount,"[1]; oral SF 50 mg/kg, 72 h",153.277 ± 38.442 µg
same,Accumulative excretion percentage,"[1]; oral SF 50 mg/kg, 72 h",15.161±3.803%
same,Concentration,"[1]; oral SF 50 mg/kg, 72 h",31 ± 2 ng/mL
same,Excretion amount,"[1]; oral SF 50 mg/kg, 72 h",0.570 ± 0.162 µg
same,Accumulative excretion amount,"[1]; oral SF 50 mg/kg, 96 h",153.277 ± 38.442 µg
same,Accumulative excretion percentage,"[1]; oral SF 50 mg/kg, 96 h",15.156±3.807%
same,Accumulative excretion amount,"[1]; oral SF 50 mg/kg, 120 h",153.277 ± 38.442 µg
same,Accumulative excretion percentage,"[1]; oral SF 50 mg/kg, 120 h",15.159±3.802%
same,cumulative fecal excretion ratio in the CNS group compared with the SF group,[1]; rats,0.83 times
same,cumulative excretion ratio in feces,"[1]; rats, oral CNS 110 mg/kg",12.55%
same,cumulative excretion ratio in feces,"[1]; rats, oral SF 50 mg/kg",15.16%
same,inhibitory effect on CYP2C11,CYP2C11,significant inhibitory effects
